From PMC7686152 come the findings set out here.

The target in this test is 10% rhodamine-labeled F-actin (chicken | rabbit) (UniProt P68139). The experiment in a line: in vitro force reconstitution assay, TIRF microscopy.
Substance “C-terminally Halo-tagged full-length zyxin (from UniProt Q15942 1-572) (natural protein)” gave a patch half-life of 44.3 s. Regarding “C-terminally Halo-tagged full-length FHL3 (from UniProt Q13643 1-280) (natural protein)”, the patch half-life was 48.3 s. Substance “C-terminally Halo-tagged full-length HIC5 (from UniProt O43294 1-461) (natural protein)” displayed a patch half-life of 42.7 s.
